Where “and” joins values, the source holds several entries; their conditions need not be identical. Identical values can stand only once. Like-named read-outs stand apart in the source and are kept apart here.
Tests used:
[1] = molecular target: MYLK3 Hu Bind (Homo sapiens, UniProt Q32MK0); assay: Kinase profiling, Lantha; settings: 1 μM, KmATP
[2] = molecular target: STK17B (DRAK2) (Homo sapiens, UniProt O94768); assay: Kinase profiling, Lantha; settings: 1 μM, KmATP
[3] = molecular target: NLK (Homo sapiens, UniProt Q9UBE8); assay: Kinase profiling, Lantha; settings: 1 μM, KmATP
[4] = molecular target: ACVRL1 (ALK1) (Homo sapiens, UniProt P37023); assay: Kinase profiling, Lantha
[5] = molecular target: CDK13 Cyclin K (Homo sapiens, UniProt Q14004); assay: Kinase profiling, Lantha; settings: 1 μM, KmATP
[6] = molecular target: EPHA7 (Homo sapiens, UniProt Q15375); assay: Kinase profiling, Lantha; settings: 1 μM, KmATP
[7] = molecular target: WNK3 (Homo sapiens, UniProt Q9BYP7); assay: Kinase profiling, Lantha; settings: 1 μM, KmATP
[8] = molecular target: T1, WEE1 (Homo sapiens, UniProt P30291); assay: Kinase profiling, Lantha
[9] = molecular target: AAK1 (Homo sapiens, UniProt Q2M2I8); assay: Kinase profiling, Lantha; settings: 1 μM, KmATP
[10] = molecular target: CAMKK1 (Alpha) (Homo sapiens, UniProt Q8N5S9); assay: Kinase profiling, Lantha; settings: 1 μM, KmATP
[11] = molecular target: MAP3K2 (MEKK2) (Homo sapiens, UniProt Q9Y2U5); assay: Kinase profiling, Lantha; settings: 1 μM, KmATP
[12] = molecular target: IRAK3 (Homo sapiens, UniProt Q9Y616); assay: Kinase profiling, Lantha; settings: 1 μM, KmATP
[13] = molecular target: STK39 (STLK3) (Homo sapiens, UniProt Q9UEW8); assay: Kinase profiling, Lantha; settings: 1 μM, KmATP
[14] = tested on: SKOV3 PKMYT1 KO (H2); assay: CellTiter-Glo growth inhibition, SKOV3 PKMYT1 KO (H2)
[15] = tested on: PKMYT1 wildtype SKOV3 cells; assay: In vitro efficacy in combination with exatecan, PKMYT1 wildtype SKOV3; settings: 3-10 μM, WT compared to KO cells, exatecan 1 nM, 7 days
[16] = tested on: CYP3A; assay: CYP time dependent inhibition, CYP3A; settings: 10 μM, 30 min preincubation, HLM
[17] = molecular target: CCK1 cholecystokinin receptor (Homo sapiens, UniProt P32238); assay: Secondary pharmacology, radioligand binding
[18] = molecular target: Androgen receptor (Homo sapiens, UniProt P10275); assay: Secondary pharmacology, radioligand binding
[19] = molecular target: M1 muscarinic receptor (Homo sapiens, UniProt P11229); assay: Secondary pharmacology, radioligand binding
[20] = molecular target: 5-HT1B receptor (Homo sapiens, UniProt P28222); assay: Secondary pharmacology, radioligand binding
[21] = molecular target: α1B adrenoceptor (Homo sapiens, UniProt P35368); assay: Secondary pharmacology, radioligand binding
[22] = molecular target: κ opioid receptor (Homo sapiens, UniProt P41145); assay: Secondary pharmacology, radioligand binding
[23] = In vivo pharmacokinetics in bile-duct-cannulated male Han Wistar rats (I.V.); settings: BDC male Han Wistar rat, I.V. 0.5 mg/kg
[24] = molecular target: MAP2K1 (MEK1) (Homo sapiens, UniProt Q02750); assay: Kinase profiling, Cascade Z-Lyte; settings: 1 μM, KmATP
[25] = molecular target: MAPK9 (JNK2) (Homo sapiens, UniProt P45984); assay: Kinase profiling, Cascade Z-Lyte; settings: 1 μM, KmATP
[26] = molecular target: bRAF (Homo sapiens, UniProt P15056); assay: Kinase profiling, Cascade Z-Lyte
[27] = molecular target: MAPK10 (JNK3) (Homo sapiens, UniProt P53779); assay: Kinase profiling, Cascade Z-Lyte; settings: 1 μM, KmATP
[28] = molecular target: MAP2K6 (MKK6) (Homo sapiens, UniProt P52564); assay: Kinase profiling, Cascade Z-Lyte; settings: 1 μM, KmATP
[29] = molecular target: MAPK14 (p38a) (Homo sapiens, UniProt Q16539); assay: Kinase profiling, Cascade Z-Lyte; settings: 1 μM, KmATP
[30] = molecular target: PDPK1 (Homo sapiens, UniProt O15530); assay: Kinase profiling, Cascade Z-Lyte; settings: 1 μM, KmATP
[31] = molecular target: MAP3K8 (COT) (Homo sapiens, UniProt P41279); assay: Kinase profiling, Cascade Z-Lyte; settings: 1 μM, KmATP
[32] = molecular target: MAP2K2 (MEK2) (Homo sapiens, UniProt P36507); assay: Kinase profiling, Cascade Z-Lyte; settings: 1 μM, KmATP
[33] = molecular target: MAPK8 (JNK1) (Homo sapiens, UniProt P45983); assay: Kinase profiling, Cascade Z-Lyte; settings: 1 μM, KmATP
[34] = molecular target: CYP2C9 (Homo sapiens, UniProt P11712); assay: CYP inhibition, CYP2C9; settings: read-out: CYP2C9 inhibition IC50; HLM, diclofenac 10 μM
[35] = molecular target: T1, WEE1; assay: NanoBRET target engagement in HEK293T cells, WEE1; settings: read-out: WEE1 INHIBITION IC50, 2 h

Sequences of proteins named here, by UniProt entry; tags and fusion partners are left off. Residues count along the entry.
UniProt Q32MK0, whole entry: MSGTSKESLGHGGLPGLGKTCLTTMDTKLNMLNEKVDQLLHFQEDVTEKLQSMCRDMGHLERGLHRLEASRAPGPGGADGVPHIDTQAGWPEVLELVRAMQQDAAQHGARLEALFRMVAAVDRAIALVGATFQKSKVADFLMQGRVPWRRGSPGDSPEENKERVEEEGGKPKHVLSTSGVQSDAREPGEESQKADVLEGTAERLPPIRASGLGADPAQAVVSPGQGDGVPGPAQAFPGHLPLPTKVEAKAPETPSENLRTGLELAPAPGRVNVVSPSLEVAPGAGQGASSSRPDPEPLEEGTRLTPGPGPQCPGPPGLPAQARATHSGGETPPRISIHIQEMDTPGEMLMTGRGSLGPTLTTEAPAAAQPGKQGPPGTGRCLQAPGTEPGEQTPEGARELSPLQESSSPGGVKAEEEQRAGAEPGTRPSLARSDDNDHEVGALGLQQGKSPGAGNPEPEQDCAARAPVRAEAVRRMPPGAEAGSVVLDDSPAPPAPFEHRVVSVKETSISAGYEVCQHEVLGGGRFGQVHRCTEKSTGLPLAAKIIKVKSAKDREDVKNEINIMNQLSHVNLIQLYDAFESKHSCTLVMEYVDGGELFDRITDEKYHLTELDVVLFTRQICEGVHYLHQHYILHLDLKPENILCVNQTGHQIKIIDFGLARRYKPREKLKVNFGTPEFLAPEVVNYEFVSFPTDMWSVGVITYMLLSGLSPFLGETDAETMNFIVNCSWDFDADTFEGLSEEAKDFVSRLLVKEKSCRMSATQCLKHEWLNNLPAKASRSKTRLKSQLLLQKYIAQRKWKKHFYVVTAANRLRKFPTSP
UniProt O94768, whole entry: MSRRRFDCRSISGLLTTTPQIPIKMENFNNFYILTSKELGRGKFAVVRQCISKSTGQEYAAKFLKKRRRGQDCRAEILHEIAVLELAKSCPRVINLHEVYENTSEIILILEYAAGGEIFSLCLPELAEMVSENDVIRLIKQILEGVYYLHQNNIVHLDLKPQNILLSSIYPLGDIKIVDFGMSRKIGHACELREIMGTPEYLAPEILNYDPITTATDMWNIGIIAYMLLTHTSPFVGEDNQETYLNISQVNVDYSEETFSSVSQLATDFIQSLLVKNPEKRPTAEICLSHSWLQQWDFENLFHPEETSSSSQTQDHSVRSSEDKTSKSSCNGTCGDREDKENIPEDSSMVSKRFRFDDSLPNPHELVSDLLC
UniProt Q9UBE8, whole entry: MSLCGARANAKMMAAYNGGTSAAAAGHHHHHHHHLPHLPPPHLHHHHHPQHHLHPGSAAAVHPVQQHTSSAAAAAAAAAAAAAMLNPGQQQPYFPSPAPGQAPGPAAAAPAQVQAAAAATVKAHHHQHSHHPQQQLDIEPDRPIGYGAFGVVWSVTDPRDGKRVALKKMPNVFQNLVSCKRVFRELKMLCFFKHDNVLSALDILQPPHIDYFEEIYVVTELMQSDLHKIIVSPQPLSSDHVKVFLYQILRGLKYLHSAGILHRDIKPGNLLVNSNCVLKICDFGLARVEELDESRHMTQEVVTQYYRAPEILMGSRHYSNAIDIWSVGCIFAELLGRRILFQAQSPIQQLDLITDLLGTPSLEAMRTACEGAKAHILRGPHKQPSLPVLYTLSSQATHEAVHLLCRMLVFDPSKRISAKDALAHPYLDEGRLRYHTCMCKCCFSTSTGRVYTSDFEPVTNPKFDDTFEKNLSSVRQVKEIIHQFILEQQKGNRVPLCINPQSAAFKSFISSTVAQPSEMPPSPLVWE
UniProt P37023, 22-503 limits assumed: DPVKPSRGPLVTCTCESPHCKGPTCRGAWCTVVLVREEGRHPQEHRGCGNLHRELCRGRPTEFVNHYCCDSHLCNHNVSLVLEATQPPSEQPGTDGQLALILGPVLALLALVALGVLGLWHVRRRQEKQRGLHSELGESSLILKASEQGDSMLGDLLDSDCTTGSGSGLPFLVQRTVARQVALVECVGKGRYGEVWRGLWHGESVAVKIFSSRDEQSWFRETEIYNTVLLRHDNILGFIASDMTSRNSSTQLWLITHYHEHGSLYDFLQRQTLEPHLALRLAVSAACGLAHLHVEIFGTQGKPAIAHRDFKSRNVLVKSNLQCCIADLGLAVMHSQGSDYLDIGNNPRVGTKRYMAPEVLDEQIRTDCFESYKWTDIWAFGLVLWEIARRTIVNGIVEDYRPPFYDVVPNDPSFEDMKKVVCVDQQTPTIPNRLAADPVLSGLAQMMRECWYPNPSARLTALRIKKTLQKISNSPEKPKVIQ
UniProt P30291, whole entry: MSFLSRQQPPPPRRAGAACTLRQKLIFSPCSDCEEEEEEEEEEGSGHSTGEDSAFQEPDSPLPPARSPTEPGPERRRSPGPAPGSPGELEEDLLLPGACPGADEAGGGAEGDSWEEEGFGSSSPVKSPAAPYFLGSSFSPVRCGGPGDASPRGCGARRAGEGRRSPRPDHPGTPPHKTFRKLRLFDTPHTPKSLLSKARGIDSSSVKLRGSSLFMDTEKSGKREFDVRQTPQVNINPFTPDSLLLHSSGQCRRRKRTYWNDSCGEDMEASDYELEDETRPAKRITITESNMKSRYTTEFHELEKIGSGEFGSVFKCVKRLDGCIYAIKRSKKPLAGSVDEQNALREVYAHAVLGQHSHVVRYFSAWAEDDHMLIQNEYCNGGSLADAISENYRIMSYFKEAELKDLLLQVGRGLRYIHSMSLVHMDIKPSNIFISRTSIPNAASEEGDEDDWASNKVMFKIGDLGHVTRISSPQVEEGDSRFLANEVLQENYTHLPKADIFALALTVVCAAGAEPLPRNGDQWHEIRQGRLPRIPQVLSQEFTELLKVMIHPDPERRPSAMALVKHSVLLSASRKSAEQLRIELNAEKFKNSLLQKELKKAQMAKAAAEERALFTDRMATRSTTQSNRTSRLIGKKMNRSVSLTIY
UniProt P32238, whole entry: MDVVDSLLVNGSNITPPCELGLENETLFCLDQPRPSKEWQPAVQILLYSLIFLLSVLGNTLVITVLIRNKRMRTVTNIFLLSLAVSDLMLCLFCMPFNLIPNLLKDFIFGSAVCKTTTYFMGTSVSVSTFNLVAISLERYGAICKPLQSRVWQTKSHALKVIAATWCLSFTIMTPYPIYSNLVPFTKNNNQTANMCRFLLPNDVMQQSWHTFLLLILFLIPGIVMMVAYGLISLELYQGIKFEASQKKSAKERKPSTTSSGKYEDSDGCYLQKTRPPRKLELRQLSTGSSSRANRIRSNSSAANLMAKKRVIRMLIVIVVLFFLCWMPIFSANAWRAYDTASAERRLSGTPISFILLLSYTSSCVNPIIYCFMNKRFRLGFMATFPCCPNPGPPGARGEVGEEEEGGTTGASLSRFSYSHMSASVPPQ
UniProt P11229, whole entry: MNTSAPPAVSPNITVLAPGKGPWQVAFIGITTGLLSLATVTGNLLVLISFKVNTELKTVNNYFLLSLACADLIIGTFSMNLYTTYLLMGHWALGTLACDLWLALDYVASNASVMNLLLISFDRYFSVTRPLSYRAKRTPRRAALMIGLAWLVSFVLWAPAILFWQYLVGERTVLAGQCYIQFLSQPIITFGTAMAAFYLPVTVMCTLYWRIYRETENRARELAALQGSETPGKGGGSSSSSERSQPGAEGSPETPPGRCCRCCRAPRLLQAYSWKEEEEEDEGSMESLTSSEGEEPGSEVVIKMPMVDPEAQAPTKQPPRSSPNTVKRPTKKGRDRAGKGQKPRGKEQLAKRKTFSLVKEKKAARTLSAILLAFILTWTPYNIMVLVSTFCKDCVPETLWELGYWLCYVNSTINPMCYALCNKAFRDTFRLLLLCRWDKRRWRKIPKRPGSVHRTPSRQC
UniProt P28222, whole entry: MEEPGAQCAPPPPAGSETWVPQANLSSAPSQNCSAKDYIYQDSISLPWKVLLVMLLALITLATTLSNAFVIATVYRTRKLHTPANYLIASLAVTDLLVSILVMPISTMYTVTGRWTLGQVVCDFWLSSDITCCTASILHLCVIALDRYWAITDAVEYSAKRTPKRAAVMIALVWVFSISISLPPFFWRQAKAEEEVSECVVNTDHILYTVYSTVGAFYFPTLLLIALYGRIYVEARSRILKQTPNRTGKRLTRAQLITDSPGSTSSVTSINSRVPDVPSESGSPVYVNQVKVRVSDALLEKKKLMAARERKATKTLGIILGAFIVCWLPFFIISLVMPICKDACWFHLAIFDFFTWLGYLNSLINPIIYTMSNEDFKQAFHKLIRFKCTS
UniProt Q02750, whole entry: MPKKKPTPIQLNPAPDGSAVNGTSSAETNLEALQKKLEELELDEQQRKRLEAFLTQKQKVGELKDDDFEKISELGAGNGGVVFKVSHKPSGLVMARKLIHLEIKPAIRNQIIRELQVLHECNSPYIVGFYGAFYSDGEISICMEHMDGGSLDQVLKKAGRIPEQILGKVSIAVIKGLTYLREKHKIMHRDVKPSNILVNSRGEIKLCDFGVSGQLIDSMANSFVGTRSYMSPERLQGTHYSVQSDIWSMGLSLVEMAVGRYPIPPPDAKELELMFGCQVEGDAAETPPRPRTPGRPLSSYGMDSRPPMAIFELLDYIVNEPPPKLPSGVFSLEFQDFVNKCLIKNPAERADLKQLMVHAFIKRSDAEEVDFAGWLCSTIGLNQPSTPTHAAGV
UniProt P45984, whole entry: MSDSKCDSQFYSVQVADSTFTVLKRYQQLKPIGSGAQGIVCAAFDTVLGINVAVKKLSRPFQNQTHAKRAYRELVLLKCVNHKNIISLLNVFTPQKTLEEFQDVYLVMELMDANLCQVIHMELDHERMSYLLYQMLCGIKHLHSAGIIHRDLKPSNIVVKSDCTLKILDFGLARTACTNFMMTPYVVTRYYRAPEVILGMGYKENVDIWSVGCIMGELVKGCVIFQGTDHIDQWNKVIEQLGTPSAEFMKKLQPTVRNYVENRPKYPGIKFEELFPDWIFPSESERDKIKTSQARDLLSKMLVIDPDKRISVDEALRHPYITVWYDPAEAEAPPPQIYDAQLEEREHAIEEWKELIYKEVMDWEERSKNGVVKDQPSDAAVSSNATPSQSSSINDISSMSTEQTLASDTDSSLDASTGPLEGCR
UniProt Q16539, whole entry: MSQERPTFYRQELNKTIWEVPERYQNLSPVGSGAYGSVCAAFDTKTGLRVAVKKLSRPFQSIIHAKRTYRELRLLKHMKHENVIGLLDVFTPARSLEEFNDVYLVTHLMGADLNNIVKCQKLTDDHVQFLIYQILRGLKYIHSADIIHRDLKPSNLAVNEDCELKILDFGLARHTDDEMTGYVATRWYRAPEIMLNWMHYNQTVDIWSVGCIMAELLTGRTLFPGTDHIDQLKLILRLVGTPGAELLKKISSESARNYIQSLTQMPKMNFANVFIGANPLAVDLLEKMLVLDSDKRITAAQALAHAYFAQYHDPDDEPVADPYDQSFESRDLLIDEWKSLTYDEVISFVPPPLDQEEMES
UniProt O15530, whole entry: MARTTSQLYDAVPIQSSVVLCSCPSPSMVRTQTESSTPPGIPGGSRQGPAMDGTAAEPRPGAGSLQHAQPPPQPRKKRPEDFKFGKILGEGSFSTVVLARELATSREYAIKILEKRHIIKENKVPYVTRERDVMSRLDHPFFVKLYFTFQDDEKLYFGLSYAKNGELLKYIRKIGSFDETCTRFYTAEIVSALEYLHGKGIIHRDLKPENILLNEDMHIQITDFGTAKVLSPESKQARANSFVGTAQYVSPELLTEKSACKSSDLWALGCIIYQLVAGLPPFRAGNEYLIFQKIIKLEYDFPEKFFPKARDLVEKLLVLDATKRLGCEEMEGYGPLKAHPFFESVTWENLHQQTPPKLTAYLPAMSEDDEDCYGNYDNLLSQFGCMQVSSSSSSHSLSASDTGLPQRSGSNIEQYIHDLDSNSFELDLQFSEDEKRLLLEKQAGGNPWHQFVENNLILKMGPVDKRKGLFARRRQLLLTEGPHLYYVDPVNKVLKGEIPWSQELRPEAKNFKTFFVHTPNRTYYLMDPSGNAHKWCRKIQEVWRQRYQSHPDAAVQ
UniProt P41279, whole entry: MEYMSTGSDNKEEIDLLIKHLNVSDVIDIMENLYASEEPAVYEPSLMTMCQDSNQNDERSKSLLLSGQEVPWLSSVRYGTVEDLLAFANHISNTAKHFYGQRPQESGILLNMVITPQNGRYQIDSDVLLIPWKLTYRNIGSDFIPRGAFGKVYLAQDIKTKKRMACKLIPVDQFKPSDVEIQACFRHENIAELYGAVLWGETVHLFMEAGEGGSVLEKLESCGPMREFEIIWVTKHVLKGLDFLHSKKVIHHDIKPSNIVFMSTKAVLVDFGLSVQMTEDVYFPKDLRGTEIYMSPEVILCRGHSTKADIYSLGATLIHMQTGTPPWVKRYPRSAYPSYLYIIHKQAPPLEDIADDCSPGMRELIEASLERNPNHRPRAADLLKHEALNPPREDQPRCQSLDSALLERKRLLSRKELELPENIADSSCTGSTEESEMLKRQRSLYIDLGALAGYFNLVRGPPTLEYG

Cc1nc(C(F)(F)F)c2c(C(N)=O)c(N)n(-c3c(C)ccc(O)c3C)c2n1 (single isomer, unassigned)
MEAN INHIBITION [1]: −1.113%
MEAN INHIBITION [2]: 9.903%
MEAN INHIBITION [3]: 5.482%
MEAN INHIBITION ([4]; 1 μM, KmATP): 89.027%
IC50 ([4]; 10-point CR, top 10 μM): 0.167 µM
MEAN INHIBITION [5]: 11.305%
MEAN INHIBITION [6]: 1.546%
MEAN INHIBITION [7]: −2.040%
MEAN INHIBITION ([8]; 1 μM, KmATP): 60.552%
IC50 ([8]; 10-point CR, top 10 μM): 0.422 µM
MEAN INHIBITION [9]: −3.536%
MEAN INHIBITION [10]: −4.586%
MEAN INHIBITION [11]: 3.169%
MEAN INHIBITION [12]: 14.866%
MEAN INHIBITION [13]: 19.173%
GI50 ([14]; read-out: GI50 VALUES, individual values, 7 days CTG): 26.4 µM and 23.8 µM and 16.9 µM
GI50 ([14]; read-out: MEAN GI50 (N = 3), mean of N = 3, 7 days CTG): 22.4 µM
combination efficacy with exatecan [15]: more pronounced in vitro efficacy for the combination
% time dependent inhibition (TDI), CYP3A [16]: less than 20%
Pharmacological mode of action [17]: Inactive
Ki ([17]; read-out: Binding Ki): > 100 µM
Pharmacological mode of action [18]: Inactive
Ki ([18]; read-out: Binding Ki): > 100 µM
Pharmacological mode of action [19]: Inactive
Ki ([19]; read-out: Binding Ki): > 100 µM
Pharmacological mode of action [20]: Inactive
Ki ([20]; read-out: Binding Ki): > 100 µM
Pharmacological mode of action [21]: Inactive
Ki ([21]; read-out: Binding Ki): > 100 µM
Pharmacological mode of action [22]: Inactive
Ki ([22]; read-out: Binding Ki): > 100 µM
AUC [23]: 0.868 µM·h
CL [23]: 27.9 mL/min/kg
Cmax [23]: 1830 nM
Tmax [23]: 4.8 min
VSS [23]: 1.19 L/kg
t1/2 [23]: 2.03 h
MEAN INHIBITION [24]: 7.323%
MEAN INHIBITION [25]: −0.061%
MEAN INHIBITION ([26]; 1 μM, KmATP): 40.753%
IC50 ([26]; 10-point CR, ATP 100.000 μM): 0.963 µM
MEAN INHIBITION [27]: 5.848%
MEAN INHIBITION [28]: −0.119%
MEAN INHIBITION [29]: −0.075%
MEAN INHIBITION [30]: 10.720%
MEAN INHIBITION [31]: 7.138%
MEAN INHIBITION [32]: 0.056%
MEAN INHIBITION [33]: 10.253%
IC50 [34]: > 30 µM
IC50 [35]: > 9.97 µM

Source: patent US20260384438A1, “PYRROLOPYRIMIDINE CARBOXAMIDES” (published 2026)
